# In the library only some 1.5% were active in any assay of this set; here they are far more common.
# Yeast UUG start = modulators of yeast start codon fidelity, primary screen, whole organism, S. cerevisiae, single point, plate reader | AID 602363, 2012 | S. cerevisiae UUG-firefly luciferase reporter, luminescence/redox ratio | activity score, % at 18.7 µM | hit rate 0.13% among 350,000;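 active = replicate mean at a twofold rise or more, about +100% in these data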;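 also: firefly luciferase made from a UUG start codon reports start codon fidelity; reporter light over untreated wells divided by growth signal over untreated wells; some hits fall short of that in this replicate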
# miR122 inh = miR-122 inhibition in Huh7 cells. 340,000 tested, 0.3% active. activation (reporter increase), % at 12.5 µM. Huh7 miR-122 Renilla luciferase sensor, 48 h; neutral wells = 0, positive control = 100;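 active means mean replicate activation score at least 90 and every replicate individually at or above 90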;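 further: higher luciferase means less miR-122 activity so hits act as miR-122 inhibitors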
# Cneo AK release = Cryptococcus neoformans lysis via adenylate kinase release; C. neoformans lysis, adenylate kinase release luminescence, 4 h; normalised: neutral wells 0, clomiphene wells 100; lysis activity, % at 15 µM; 360,000 tested, 0.2% active;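 active means mean lysis activity across replicates of at least 80%, whatever share of replicates individually reach that level; inactive means mean lysis activity below 80%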
#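 Assay system: Cryptococcus neoformans yeast cells / Dosing: single-point compound dose / Timing: 4 h at 37 °C static, read 1 h later / Measured by: luminescence of released adenylate kinase using an AK detection reagent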
# PGC1a acetyl inh = modulators of PGC1a acetylation; AID 651687; U2OS PGC1a acetylation, AlphaScreen anti-acetyl-lysine; with virally co-expressed GCN5 acetyltransferase; inhibition, % at 15.6 µM; 350,000 tested, 0.17% active;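 active means every replicate shows inhibition of at least 40%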;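 further: 0% = neutral control wells and 100% = positive control wells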
# HIV Env fusion = blocks HIV Env-driven cell-cell fusion | HeLa-JRFL Env/CEM21 cell fusion, luciferase | 360,000 tested, 1.1% active | inhibition, % at 12.3 µM;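 active means mean replicate inhibition score of at least 50 and every replicate individually at or above 50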;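 further: 0% = plate neutral controls and 100% = maraviroc near 300 nM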
# FN deposit inh = fibronectin deposition inhibition; AID 743247; inhibition, % at 12.6 µM; 350,000 tested, 0.086% active; AH1F fibroblasts, Alexa488-fibronectin deposition fluorescence, overnight;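 active means mean inhibition across replicates of 30% or more, regardless of how many single replicates reach that level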;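 further: positive control wells lacked labelled fibronectin entirely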
#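 Material: AH1F fibroblasts assembling fluorescent fibronectin matrix; amount: 10000 AH1F cells/well; medium: DMEM, 2% serum; reagent: Alexa488-fibronectin, 24 nM final in well; dosing: single compound dose, delivered by pin transfer; incubation: 1 h adhesion, overnight exposure; detection: fluorescence after three HBSS washes, excitation 485 nm, emission 525 nm; measure: fibronectin deposition inhibition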
# The depositor's hits bear a star; nt = no result; [ ] = dose if it differs, or a comment.
SMILES,Yeast UUG start,miR122 inh,Cneo AK release,PGC1a acetyl inh,HIV Env fusion,FN deposit inh
C[C@@H]1CN([C@H](C)CO)C(=O)c2cc(NS(=O)(=O)c3ccc(F)cc3)ccc2O[C@@H](C)CCCCO[C@@H]1CN(C)C(=O)C1CCCCC1,2.0,3.1[16.7 µM],-1.8,-1.0,-32.6[16.7 µM],-10.0
COc1cccc(NC(=O)c2ccc(CN3CCN(c4ccccc4)CC3)cc2)c1,-6.4,0.4,2.6,nt,61.7*,nt
COc1cccc(NC(=O)c2ccccc2-c2ccccc2C(=O)O)c1,-7.3,-0.8,1.6,81.3*,0.2,-4.0
COc1ccc(C(=O)Nc2ccc(N3CCN(Cc4ccccc4)CC3)cc2)cc1,nt,-0.3,nt,-3.3,9.4,-7.2
COc1c(F)c(F)c(C(=O)Nc2ccc(N3CCN(Cc4ccccc4)CC3)cc2)c(F)c1F,nt,-8.3,nt,-0.3,64.6*,nt
CC(=O)c1cccc(NC(=O)c2ccccc2-c2ccccc2C(=O)O)c1,-4.7,-0.5,1.4,6.7,-3.4,-5.3
CCCCCCCCN1C(=O)[C@H](CC(=O)NCCC(C)C)C[C@@]2(C(=O)OCC)CCC=C12,nt,nt,nt,nt,16.7,-1.3
COc1ccc(-c2cc(OC)c3ccccc3n2)cc1,-3.3,4.3,0.5,-1.6,nt,nt
N#Cc1ccc(-c2ccc3c(c2)[C@@H]2[C@@H](CCN2C(=O)C2CCCCC2)[C@H](CO)N3)cc1,2.8,-3.8[16.7 µM],22.7,9.5,nt,-16.7
O=C1c2oc3ccccc3c(=O)c2C(c2cccc(Br)c2)N1Cc1ccco1 (stereo not given),nt,nt,nt,nt,55.3*,2.3
COc1ccc(CCNc2ccncn2)cc1,-13.2,-6.1,0.4,nt,56.0*,-11.6
Cc1cnc(NC(=O)CN2C(=O)C3CC=CCC3C2=O)s1 (stereo not given),-16.7,5.3,-0.3,nt,-22.8,-4.3
O=C(CN1C(=O)C2CC=CCC2C1=O)Nc1nccs1 (stereo not given),nt,0.6,nt,50.1*,nt,nt
CCOC(=O)N1CCN(S(=O)(=O)c2ccc(C)c(C)c2C)CC1,49.3,3.7,-2.4,-12.2,nt,nt
Cc1ccc(S(=O)(=O)n2nc(C)c(Br)c2C)c(C)c1C,nt,104.5*,nt,13.9,nt,nt

# Looked up one by one from above (3):
SMILES,Yeast UUG start,miR122 inh,Cneo AK release,PGC1a acetyl inh,HIV Env fusion,FN deposit inh
Cc1cnc(NC(=O)CN2C(=O)C3CC=CCC3C2=O)s1 (stereo not given),-16.7,5.3,-0.3,nt,-22.8,-4.3
Cc1ccc(S(=O)(=O)n2nc(C)c(Br)c2C)c(C)c1C,nt,104.5*,nt,13.9,nt,nt
COc1ccc(-c2cc(OC)c3ccccc3n2)cc1,-3.3,4.3,0.5,-1.6,nt,nt

# (cont.)
SMILES,Yeast UUG start,miR122 inh,Cneo AK release,PGC1a acetyl inh,HIV Env fusion,FN deposit inh
O=C(/C=C/c1cccs1)c1ccc(NC(=O)c2cccc(Br)c2)cc1,-19.8,-2.0,-1.0,47.6*,-0.7,-9.5
CCCNC(=O)N1CC(=O)N2[C@H](CO)[C@H](c3ccc(-c4cccc(C)c4)cc3)[C@@H]2C1,nt,nt,nt,-12.9,nt,nt
O=P(CCCCCCCCCP(=O)(c1ccccc1)c1ccccc1)(c1ccccc1)c1ccccc1,4.5,-15.5,-0.9,78.3*,-232.2,8.7
O=C(O)CCCCCCCCCCP(=O)(c1ccccc1)c1ccccc1,9.4,nt,-1.0,4.6,-12.7,0.9
CC(=O)NC1CCCc2c1cnn2-c1ccc(C(C)(C)C)cc1 (stereo not given),-4.4,nt,3.8,nt,-8.6,1.7
COc1ccc(/C=C/c2cc(-c3ccc(C)cc3)o[n+]2C)cc1,-4.9,-17.4,2.7,-120.8,134.2*,-5.7
O=C(NC1CCCCC1)c1n[nH]c2c1CCCCC2,-87.1,-7.4,-8.0,nt,69.1*,2.4
COc1ccc(-c2nn(-c3ccccc3)cc2/C=N/NC(=O)c2ccc(Br)o2)cc1,-12.8,6.6,-2.2,-2.1,nt,nt
CCOC(=O)c1cc(NC(=O)C2C3CCC(O3)C2C(=O)O)cc(C(=O)OCC)c1 (stereo not given),2.5,1.3,-11.1,0.1,nt,nt
CCc1ccc(-c2nc(CN3CCC(C(=O)NCCc4ccc(OC)c(OC)c4)CC3)c(C)o2)cc1,-7.0,-3.0,0.6,-1.0,68.4*,8.0
COc1ccc(CCNC(=O)C2CCN(Cc3nc(-c4ccccc4F)oc3C)CC2)cc1OC,2.4,-7.0,0.9,-5.8,-47.9,33.5*
CCc1ccc(-c2nc(CN3CCC(C(=O)NCc4ccccc4OC)CC3)c(C)o2)cc1,-17.0,-16.3,-5.1,nt,-3.9,0.1
Cc1oc(-c2ccccc2F)nc1CN1CCC(C(=O)NCCC2=CCCCC2)CC1,-13.7,-6.1,4.7,nt,90.3*,2.8
Cc1oc(-c2ccccc2F)nc1CN1CCC(C(=O)NCc2cccnc2)CC1,-13.2,-7.0,3.1,-13.4,-33.6,-15.6
CS(=O)(=O)Cc1ccc(C(=O)Nc2cccc(-c3nc4ccccc4[nH]3)c2)cc1,-8.4,2.5,-0.8,nt,-43.1,14.0

# Taken from the listing for reference:
SMILES,Yeast UUG start,miR122 inh,Cneo AK release,PGC1a acetyl inh,HIV Env fusion,FN deposit inh
O=P(CCCCCCCCCP(=O)(c1ccccc1)c1ccccc1)(c1ccccc1)c1ccccc1,4.5,-15.5,-0.9,78.3*,-232.2,8.7
O=C(O)CCCCCCCCCCP(=O)(c1ccccc1)c1ccccc1,9.4,nt,-1.0,4.6,-12.7,0.9
CC(=O)NC1CCCc2c1cnn2-c1ccc(C(C)(C)C)cc1 (stereo not given),-4.4,nt,3.8,nt,-8.6,1.7

# Following part:
SMILES,Yeast UUG start,miR122 inh,Cneo AK release,PGC1a acetyl inh,HIV Env fusion,FN deposit inh
COC(=O)c1c(NC(=O)CN2CCN(c3ccccc3Cl)CC2)sc(C)c1C,nt,nt,nt,nt,12.6,34.4*
Cc1cc(Nc2ccccc2)cc(=O)n1C,-5.1,-0.9,1.8,59.3*,-9.3,0.6
Cc1cc(C(=O)OCC(=O)NNC(=O)c2cccs2)ccc1[N+](=O)[O-],2.9,-2.9,nt,-8.9,nt,nt
Oc1ccc(/C=N/Nc2nc(-c3ccc(Cl)cc3)cc(C(F)(F)F)n2)cc1,-13.9,-29.6,0.3,64.1*,24.2,-1.1
Cc1cc(-c2ccccc2)nc(N/N=C/c2ccc(O)cc2)n1,-26.3,-9.3,-2.8,0.5,-36.2,1.0
COCC#Cc1ccc([C@@H]2[C@@H](CO)N3C(=O)CN(C(=O)C4CC4)C[C@@H]23)cc1,nt,nt,nt,-9.6,nt,-3.2
CC(C)(C)OC(=O)NCCCCCc1cn(CC(=O)NCCCCCCCCCCC(=O)N2CCN(C(=O)OC(C)(C)C)CC2)nn1,-6.6,nt,3.6,nt,57.0*,-1.7
Cc1cn([C@@H](CCCCNC(=O)OC(C)(C)C)C(=O)NCCCCCCCCCCC(=O)N2CCN(C(=O)OC(C)(C)C)CC2)nn1,-10.6,-5.3,3.1,0.1,nt,nt
O=[N+]([O-])c1ccc(-c2nc(C(Cl)Cl)c3ccccc3n2)cc1,-9.1,-17.1,-3.8,3.4,73.6*,5.9
O=C1c2ccccc2C(=O)N1CCn1ccnc1,-23.0,-3.0,1.7,0.6,5.6,2.3
CC(=O)Oc1ccccc1/C=C/c1nc2ccccc2c(=O)o1,-18.7,10.2,-4.5,1.3,23.5,-0.3
C/C(O)=c1/c(=O)nc2cccc3c2=c1c1ccccc1c3=O,-6.9,nt,-0.1,nt,67.3*,7.0
CN1C(=O)c2cc(NC(=O)Cc3ccccc3)ccc2OC[C@H]2O[C@@H](CC(=O)NCC3CC3)CC[C@@H]21,-1.5,16.7[16.7 µM],-2.0,1.3,-6.4[16.7 µM],4.1
CN1C(=O)c2cc(NC(=O)Cc3ccccc3)ccc2OC[C@@H]2O[C@H](CC(=O)NCc3ccc(Cl)cc3)CC[C@@H]21,2.5,293.3*[16.7 µM],-1.8,1.5,23.7[16.7 µM],-17.8
CN1C(=O)c2cc(NC(=O)Cc3ccccc3)ccc2OC[C@@H]2O[C@H](CC(=O)NCC3CC3)CC[C@@H]21,-1.7,233.3*[16.7 µM],-2.4,3.8,-0.8[16.7 µM],-12.7
COc1ccc(-n2c(SCc3ccc(C#N)cc3)nnc2-c2ccccn2)cc1,-38.6,2.6,0.0,10.9,-49.5,nt
Cc1ccc(S(=O)(=O)N(Cc2cccc(C)c2)C(=O)N2CCN(C)CC2)cc1,-13.3,-7.5,2.3,4.2,20.3,2.4

# Screens from PubChem BioAssay.
